Patent US10927076B2, “HSP90B N-terminal isoform-selective inhibitors” (priority 2017, dated 2021)

Sequences of proteins named here, by UniProt entry; tags and fusion partners are left off.
UniProt P08238, whole entry: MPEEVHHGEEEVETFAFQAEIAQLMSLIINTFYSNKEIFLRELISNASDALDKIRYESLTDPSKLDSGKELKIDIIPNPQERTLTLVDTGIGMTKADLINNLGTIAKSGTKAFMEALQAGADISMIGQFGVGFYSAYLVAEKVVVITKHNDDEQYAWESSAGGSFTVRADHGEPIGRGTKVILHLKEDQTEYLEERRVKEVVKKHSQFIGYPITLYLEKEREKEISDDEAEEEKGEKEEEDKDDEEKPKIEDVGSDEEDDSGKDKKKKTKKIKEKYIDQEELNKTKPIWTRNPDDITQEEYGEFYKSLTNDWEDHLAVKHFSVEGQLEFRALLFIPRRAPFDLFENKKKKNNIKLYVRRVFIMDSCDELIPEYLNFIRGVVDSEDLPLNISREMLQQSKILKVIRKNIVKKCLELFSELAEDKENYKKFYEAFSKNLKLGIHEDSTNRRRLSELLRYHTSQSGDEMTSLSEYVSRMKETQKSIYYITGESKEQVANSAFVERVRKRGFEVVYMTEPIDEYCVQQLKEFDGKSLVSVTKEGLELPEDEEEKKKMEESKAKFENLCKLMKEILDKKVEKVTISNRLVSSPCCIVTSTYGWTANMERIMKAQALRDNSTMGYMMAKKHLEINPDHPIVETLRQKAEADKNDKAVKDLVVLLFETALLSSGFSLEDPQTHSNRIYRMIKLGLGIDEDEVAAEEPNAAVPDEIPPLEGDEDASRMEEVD

Tests used:
Hsp90α = Hsp90α (Homo sapiens (Human), UniProt P07900); assay: Fluorescence polarization assay (FITC-GDA tracer displacement); type: binding; conditions: read-out: Kd Hsp90α
Hsp90β = Hsp90β (Homo sapiens (Human), UniProt P08238); assay: as above; type: binding; conditions: read-out: Kd Hsp90β

Structure (SMILES): CC(C)c1cc(C(=O)N2Cc3ccccc3C2)c(O)c2nn[nH]c12
- Kd (Hsp90α): ≥ 100 µM
- Kd (Hsp90β): ≥ 100 µM
